The record followed here is patent publication US10190104B2, “Isoform of anaplastic lymphoma kinase and its uses” (Memorial Sloan-Kettering Cancer Center, priority 2014, dated 2019).

Test [1] has as its system metastatic melanoma with ALK^ATI expression. In words: Compassionate use of crizotinib in a patient with metastatic melanoma with ALK^ATI expression. Format: in vivo, human. To be noted: one patient (MM-382); within 6 weeks of therapy.
Test [2] has as its system NIH-3T3 grafted tumors expressing ALK^WT. In words: In vivo drug treatment of NIH-3T3 grafted tumors expressing ALK^WT in SCID mice. To be noted: 100 mg/kg/day, bioluminescence.
In test [3] the test system is NIH-3T3 grafted tumors expressing ALK^F1174L. In words: In vivo drug treatment of NIH-3T3 grafted tumors expressing ALK^F1174L in SCID mice. Particulars: 100 mg/kg/day, bioluminescence.
Test [4] has as its system NIH-3T3 grafted tumors expressing EML4-ALK. In words: In vivo drug treatment of NIH-3T3 grafted tumors expressing EML4-ALK in SCID mice. To be noted: 100 mg/kg/day, bioluminescence.

Consider `C[C@@H](Oc1cc(-c2cnn(C3CCNCC3)c2)cnc1N)c1c(Cl)ccc(F)c1Cl` [crizotinib], for which the symptomatic response entry in test [1] is “marked symptomatic improvement”. Moreover, the “tumor response (CT)” value in test [1] was “tumor shrinkage”. The “sensitivity to crizotinib in vivo” value in test [2], in test [3] and in test [4] was “sensitivity” throughout.
